Reference: ChEMBL document CHEMBL4411294, “Synthesis and biological evaluation of cyanoaziridine phosphine oxides and phosphonates with antiproliferative activity” (Eur J Med Chem, 2019)

What was measured:
A549 = test: Cytotoxicity against human A549 cells assessed as reduction in cell viability after 48 hrs by CCK8 assay
HEK293 = test: Cytotoxicity against human HEK293 cells assessed as reduction in cell viability after 48 hrs by CCK8 assay; type: cell-based
MRC5 = test: Cytotoxicity against human MRC5 cells assessed as reduction in cell viability after 48 hrs by CCK8 assay; type: cell-based

Row | SMILES | IC50 (A549) [µM] | IC50 (HEK293) [µM] | IC50 (MRC5) [µM]
1 | CCOP(=O)(OCC)[C@@H]1N[C@@]1(C)C#N | 4.3 | > 50 | > 50
2 | CCOP(=O)(OCC)[C@@H]1N[C@]1(C#N)CC | 1.5 | > 50 | > 50
3 | CC(C)OP(=O)(OC(C)C)[C@@H]1N[C@@]1(C)C#N | 3.6 | > 50 | > 50
